## Apparent affinities of Ab-14 variants for a coronavirus HR2 peptide

The target is the same throughout: PDVDLGDISGINAS, from the HR2 region of SARS-CoV-2 spike.

Ab-14 is the parent antibody, in scFv form: VH, then the linker GGGGSGGGGSGGGGS, then VL. The heavy chain is unchanged in all variants.
VH: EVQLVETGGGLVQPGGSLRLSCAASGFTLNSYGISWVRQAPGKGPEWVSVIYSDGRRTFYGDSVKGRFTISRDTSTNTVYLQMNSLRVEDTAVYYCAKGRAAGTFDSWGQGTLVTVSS
VL: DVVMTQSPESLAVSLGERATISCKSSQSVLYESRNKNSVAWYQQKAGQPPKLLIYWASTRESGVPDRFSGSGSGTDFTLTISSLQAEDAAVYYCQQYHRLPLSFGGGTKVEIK

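In library AAYL50, one, two or three CDR residues were substituted; doubles and triples were drawn at random. The assay is AlphaSeq: two haploid yeast populations carry antibody and antigen on their surface. Binding brings cells together so that they mate, and sequencing counts the barcode pairs among the diploids. Each replicate has its own calibration line, from reference interactions of the BCL2 family. Mating was done three times.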

Substitutions are numbered in sequence along the VL above, starting at 1 (not Kabat).
Values are apparent Kd, the geometric mean of the replicates that gave a signal; lower means stronger binding.
A pair that was not seen in any replicate is written "not detected"; this usually means weak binding, but a binder can also be missed.
Empty control strains, which show no peptide, gave a signal in 18% of pairings with library AAYL50; the median was 15 µM and 95% of these signals were weaker than 970 nM. No background was subtracted.
For reference, the parent read 4.4 nM as the reference entry and 48 nM as a member of this library.

changes	Kd (apparent)	detected
S26A A57L Q95G	2.2 µM	3 of 3
L30S S38D S58C	27 µM	3 of 3
S28A A40M T59M	not detected	0 of 3
A57Q T59C Y97C	not detected	0 of 3
S28M P101I S103Y	1.9 µM	3 of 3
S26H S62E	250 nM	3 of 3
Y31R K36W P101G	2.6 µM	1 of 3
Q27N V29H S38E	31 nM	3 of 3
S33A W56V L102M	5.9 µM	1 of 3
S33M R34N Q95P	13 µM	2 of 3
Y31F W56Y R99H	11 µM	1 of 3
K24I T59I P101A	not detected	0 of 3
L30Q S33D R34K	5.2 nM	3 of 3
E32S V39D A40Y	not detected	0 of 3
Q27P Y97N P101T	not detected	0 of 3
Q96P H98P R99F	8.4 µM	1 of 3
R99T L100H S103V	76 µM	2 of 3
A40K E61S S103W	2.5 µM	1 of 3
L30W A40G L102H	2.9 µM	2 of 3
S38T S62H L102S	1.3 µM	1 of 3
A57I S62N Q95T	290 µM	1 of 3
Q27S V29C R60W	18 µM	2 of 3
S28M Q96M R99A	280 nM	3 of 3
S25Y V39H S103I	not detected	0 of 3
K36A V39E Q96T	not detected	0 of 3
S28E S33P L102T	110 nM	3 of 3
K24A N37Q P101S	270 nM	3 of 3
K24Y S25F S103H	100 nM	3 of 3
K24L N35E Y97K	84 nM	3 of 3
S28G Q95I P101N	2.7 µM	2 of 3
E32D S33N L102Y	2.6 µM	1 of 3
K24S Y97M R99S	not detected	0 of 3
S33A Y97D P101R	54 nM	3 of 3
S25R S38Q Q95I	120 nM	3 of 3
Q27T L30S N37V	90 nM	3 of 3
V29L L30K Q95Y	not detected	0 of 3
S25F Y31D	21 nM	3 of 3
A40W Y97G L100P	8.1 µM	1 of 3
Y31H S38L R99D	180 µM	1 of 3
K24C L30W	4.6 nM	3 of 3
L30H E61W	610 nM	3 of 3
S26K S33C W56S	37 nM	3 of 3
R34L T59V	200 nM	2 of 3
N37Y Q95N H98K	not detected	0 of 3
A57K Y97D R99T	14 µM	1 of 3
A57Y S62M L100Y	not detected	0 of 3
E32N P101A L102Y	70 nM	3 of 3
E61V Y97A L100H	140 nM	3 of 3

The measurements come from Engelhart et al. 2022 (doi:10.1038/s41597-022-01779-4) through the FLAb antibody collection.